Laboratory results: ChEMBL document CHEMBL4011649 (J Med Chem, 2017)

By UniProt entry, the sequences of proteins in these tests, tags left out. Where a name states a change or a piece, a line headed by the entry shows the natural chain unless it says otherwise.
UniProt P28223, whole entry, looked up: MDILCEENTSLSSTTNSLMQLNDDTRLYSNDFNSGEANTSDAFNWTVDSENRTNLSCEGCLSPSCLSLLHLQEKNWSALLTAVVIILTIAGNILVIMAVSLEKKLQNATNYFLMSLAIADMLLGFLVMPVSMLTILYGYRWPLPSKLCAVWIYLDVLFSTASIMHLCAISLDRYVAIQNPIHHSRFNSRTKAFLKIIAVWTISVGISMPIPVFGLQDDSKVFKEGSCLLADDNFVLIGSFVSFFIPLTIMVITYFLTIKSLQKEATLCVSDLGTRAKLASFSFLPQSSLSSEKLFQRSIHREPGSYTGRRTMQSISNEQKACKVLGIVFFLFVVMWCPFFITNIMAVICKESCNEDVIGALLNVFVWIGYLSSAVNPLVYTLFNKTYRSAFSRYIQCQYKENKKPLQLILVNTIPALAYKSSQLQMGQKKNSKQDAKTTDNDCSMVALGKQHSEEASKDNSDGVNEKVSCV
UniProt P28335: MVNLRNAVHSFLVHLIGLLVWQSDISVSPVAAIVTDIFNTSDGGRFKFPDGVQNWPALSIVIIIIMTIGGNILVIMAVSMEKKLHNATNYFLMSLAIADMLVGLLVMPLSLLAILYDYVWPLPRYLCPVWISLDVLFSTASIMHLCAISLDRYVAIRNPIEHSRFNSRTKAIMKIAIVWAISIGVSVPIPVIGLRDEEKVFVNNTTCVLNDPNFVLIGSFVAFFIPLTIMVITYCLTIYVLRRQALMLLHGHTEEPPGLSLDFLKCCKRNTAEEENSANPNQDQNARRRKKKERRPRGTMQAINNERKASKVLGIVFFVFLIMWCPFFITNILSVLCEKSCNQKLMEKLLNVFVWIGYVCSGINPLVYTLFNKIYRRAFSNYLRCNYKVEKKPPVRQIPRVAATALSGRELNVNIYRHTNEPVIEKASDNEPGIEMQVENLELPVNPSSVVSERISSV

Biological target: Serotonin 2 receptors; 5-HT2a & 5-HT2c (Homo sapiens) (UniProt P28223+P28335)
Experiment: Selectivity ratio of EC50 for human 5HT2A receptor to EC50 for human 5HT2C-INI receptor

COc1ccc(F)cc1C1CC1CNCc1ccccc1O.Cl (racemic)
Ratio EC50: 0.25
